Results published in article doi:10.1101/2024.06.03.597093v3 (biorxiv, 2024).

The chains behind the UniProt entries cited, without tags or fusion partners.
UniProt P08588, whole entry: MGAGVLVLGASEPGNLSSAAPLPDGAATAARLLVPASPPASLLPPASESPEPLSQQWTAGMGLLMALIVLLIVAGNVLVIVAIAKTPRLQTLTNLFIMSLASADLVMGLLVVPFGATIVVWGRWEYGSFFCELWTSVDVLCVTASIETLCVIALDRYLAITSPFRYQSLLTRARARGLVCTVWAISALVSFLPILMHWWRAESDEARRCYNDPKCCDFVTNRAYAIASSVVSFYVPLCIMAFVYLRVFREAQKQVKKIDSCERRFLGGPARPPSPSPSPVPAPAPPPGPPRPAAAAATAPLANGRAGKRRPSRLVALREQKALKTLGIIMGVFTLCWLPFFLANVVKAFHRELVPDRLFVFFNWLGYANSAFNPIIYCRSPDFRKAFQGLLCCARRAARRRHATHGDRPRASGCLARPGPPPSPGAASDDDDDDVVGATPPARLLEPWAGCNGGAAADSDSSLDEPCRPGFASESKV

Target: β1AR-NlucC (CRISPR) (Homo sapiens, UniProt P08588)
Assay: cell-based

- EC50: 251 nM
SMILES: CNC[C@H](O)c1ccc(O)c(O)c1 [adrenaline]
